The values that follow come from US7332631B2, “Fc receptor modulating compounds and compositions” (Trillium Therapeutics Inc., priority 2002, dated 2008).

Sequences of proteins named here, by UniProt entry; tags and fusion partners are left off. Residues count along the entry.
UniProt P12318, 34-317 limits assumed: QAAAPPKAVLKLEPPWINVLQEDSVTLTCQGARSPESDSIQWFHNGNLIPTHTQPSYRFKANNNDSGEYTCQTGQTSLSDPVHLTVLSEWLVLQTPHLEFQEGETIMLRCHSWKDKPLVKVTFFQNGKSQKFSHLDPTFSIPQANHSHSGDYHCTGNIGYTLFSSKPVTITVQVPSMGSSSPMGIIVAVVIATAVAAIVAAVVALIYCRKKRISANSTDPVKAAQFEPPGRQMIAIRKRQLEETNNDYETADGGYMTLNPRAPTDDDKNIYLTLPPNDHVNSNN

The assay addresses FcγRIIa (Homo sapiens, UniProt P12318). As to the kind of experiment: FACS assay of activation of human platelets by heat aggregated IgG (HAGG), P-Selectin expression. The class given is cell-based. As to conditions: read-out: Concentration at 50% inhibition of platelet activation by HAGG; washed human platelets, HAGG as agonist; several values in a cell = repeat determinations; '(ICnn)' after a '<' bound = inhibition level at that concentration.

With `O=C(O)c1cc2c(c([N+](=O)[O-])c1)-c1c(cc([N+](=O)[O-])cc1[N+](=O)[O-])C2=O`, the IC50 was < 140 µM.
